The values below are quoted from earlier work in patent publication US20040241244A1, “Neuronal growth enhancement by prostaglandin compositions and methods” (NexMed (Holdings) Inc., priority 2003, published 2004).

Amino acid sequences for entries named in this document (tags omitted). A change or cut given only in a name is not applied to a line headed by its entry.
UniProt P32240: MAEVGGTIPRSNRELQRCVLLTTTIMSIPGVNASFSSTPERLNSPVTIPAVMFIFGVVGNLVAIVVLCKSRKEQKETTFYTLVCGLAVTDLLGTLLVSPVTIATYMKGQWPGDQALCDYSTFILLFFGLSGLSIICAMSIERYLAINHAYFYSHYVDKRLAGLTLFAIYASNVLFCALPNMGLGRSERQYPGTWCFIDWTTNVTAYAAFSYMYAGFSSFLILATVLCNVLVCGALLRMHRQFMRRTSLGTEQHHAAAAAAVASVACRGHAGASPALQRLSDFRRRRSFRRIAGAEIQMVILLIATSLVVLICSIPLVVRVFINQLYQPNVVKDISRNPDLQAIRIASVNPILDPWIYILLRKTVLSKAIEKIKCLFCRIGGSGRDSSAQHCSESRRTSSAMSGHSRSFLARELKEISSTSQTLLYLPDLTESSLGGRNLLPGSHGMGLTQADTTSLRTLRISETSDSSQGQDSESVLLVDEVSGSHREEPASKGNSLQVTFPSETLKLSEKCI

In the series the target is EP4 receptor (Mus musculus, UniProt P32240). The conditions noted are these: read-out: affinity for the EP4 receptor; cited from earlier work.

As for `CCCCC[C@H](O)/C=C/[C@H]1[C@H](O)CC(=O)[C@@H]1C/C=C\CCCC(=O)O` [PGE2, Prostaglandin E2], the Kd was roughly 2 nM.
